The test system of test [1] is 6xHN-LucN-[…] + 6xHN-LBD(R274L)-LucC (double molecular type, split firefly luciferase, hVDR LBD with R274L mutation). The test is described as follows: Luciferase assay in in vitro system, double molecular type biosensor. The class given is biochemical, human. Particulars: 100 nM 1α,25(OH)2D3, in vitro.
Test [2] relates to double molecular type LucN-[…] + LBD-LucC biosensor (split firefly luciferase, hVDR LBD 121-427 aa). Particulars: 100 nM 1α,25(OH)2D3, COS-7 cells co-expressing both proteins, after 60 minutes.

The structures appear in SMILES notation.

Consider `C=C1/C(=C\C=C2/CCC[C@]3(C)[C@@H]([C@H](C)CCCC(C)(C)O)CC[C@@H]23)C[C@@H](O)C[C@@H]1O` [1α,25(OH)2D3, 1α,25-dihydroxyvitamin D3], for which, in test [1], the “responsiveness decreased compared to 6xHN-LBD-LucC” value is on record as “about 25%”. Further, in test [2], the light emission response result is recorded as “increased in light emission”.
